PMC4977286 (Frontiers in Pharmacology, 2016)

By UniProt entry, the sequences of proteins in these tests, tags left out.
UniProt Q92887, whole entry: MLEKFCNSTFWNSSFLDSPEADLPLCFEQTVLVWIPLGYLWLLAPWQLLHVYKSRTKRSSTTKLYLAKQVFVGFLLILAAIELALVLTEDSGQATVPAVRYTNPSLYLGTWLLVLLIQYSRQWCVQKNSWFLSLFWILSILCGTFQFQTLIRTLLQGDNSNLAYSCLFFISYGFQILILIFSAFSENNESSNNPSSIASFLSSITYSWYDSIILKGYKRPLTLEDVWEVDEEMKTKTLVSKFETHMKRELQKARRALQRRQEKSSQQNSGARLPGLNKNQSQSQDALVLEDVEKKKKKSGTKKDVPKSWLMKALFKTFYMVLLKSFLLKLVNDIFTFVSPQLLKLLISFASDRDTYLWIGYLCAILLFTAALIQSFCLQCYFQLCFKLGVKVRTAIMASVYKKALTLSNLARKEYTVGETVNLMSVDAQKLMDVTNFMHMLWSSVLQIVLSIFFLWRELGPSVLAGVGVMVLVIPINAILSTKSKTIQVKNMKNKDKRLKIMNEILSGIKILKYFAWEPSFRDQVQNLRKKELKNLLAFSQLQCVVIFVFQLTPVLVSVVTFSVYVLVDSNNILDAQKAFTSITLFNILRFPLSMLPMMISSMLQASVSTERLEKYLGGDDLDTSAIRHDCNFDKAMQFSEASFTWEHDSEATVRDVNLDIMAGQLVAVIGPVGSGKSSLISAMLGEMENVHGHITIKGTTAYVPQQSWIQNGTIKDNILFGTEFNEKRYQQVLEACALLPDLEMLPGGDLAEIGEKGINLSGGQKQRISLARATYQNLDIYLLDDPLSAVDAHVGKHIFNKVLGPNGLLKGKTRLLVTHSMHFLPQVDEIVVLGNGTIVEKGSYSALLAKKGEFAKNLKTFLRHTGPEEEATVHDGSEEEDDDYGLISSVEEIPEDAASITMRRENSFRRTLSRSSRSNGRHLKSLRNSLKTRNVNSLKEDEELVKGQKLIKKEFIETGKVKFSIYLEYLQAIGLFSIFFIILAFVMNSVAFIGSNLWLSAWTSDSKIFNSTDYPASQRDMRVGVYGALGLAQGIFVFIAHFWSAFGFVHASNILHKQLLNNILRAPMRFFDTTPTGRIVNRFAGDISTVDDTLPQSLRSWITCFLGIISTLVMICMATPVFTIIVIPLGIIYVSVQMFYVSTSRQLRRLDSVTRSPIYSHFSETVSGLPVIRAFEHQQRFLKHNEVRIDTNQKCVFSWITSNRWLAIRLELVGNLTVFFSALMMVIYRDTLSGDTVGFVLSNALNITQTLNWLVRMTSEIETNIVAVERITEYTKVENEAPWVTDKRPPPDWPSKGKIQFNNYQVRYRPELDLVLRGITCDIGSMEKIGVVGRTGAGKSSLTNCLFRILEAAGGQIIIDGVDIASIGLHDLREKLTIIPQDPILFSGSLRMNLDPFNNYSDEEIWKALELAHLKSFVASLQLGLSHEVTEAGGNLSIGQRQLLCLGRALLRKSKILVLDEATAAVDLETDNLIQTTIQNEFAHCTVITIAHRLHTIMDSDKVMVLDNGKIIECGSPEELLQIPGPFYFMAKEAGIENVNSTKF
UniProt Q9UNQ0, whole entry: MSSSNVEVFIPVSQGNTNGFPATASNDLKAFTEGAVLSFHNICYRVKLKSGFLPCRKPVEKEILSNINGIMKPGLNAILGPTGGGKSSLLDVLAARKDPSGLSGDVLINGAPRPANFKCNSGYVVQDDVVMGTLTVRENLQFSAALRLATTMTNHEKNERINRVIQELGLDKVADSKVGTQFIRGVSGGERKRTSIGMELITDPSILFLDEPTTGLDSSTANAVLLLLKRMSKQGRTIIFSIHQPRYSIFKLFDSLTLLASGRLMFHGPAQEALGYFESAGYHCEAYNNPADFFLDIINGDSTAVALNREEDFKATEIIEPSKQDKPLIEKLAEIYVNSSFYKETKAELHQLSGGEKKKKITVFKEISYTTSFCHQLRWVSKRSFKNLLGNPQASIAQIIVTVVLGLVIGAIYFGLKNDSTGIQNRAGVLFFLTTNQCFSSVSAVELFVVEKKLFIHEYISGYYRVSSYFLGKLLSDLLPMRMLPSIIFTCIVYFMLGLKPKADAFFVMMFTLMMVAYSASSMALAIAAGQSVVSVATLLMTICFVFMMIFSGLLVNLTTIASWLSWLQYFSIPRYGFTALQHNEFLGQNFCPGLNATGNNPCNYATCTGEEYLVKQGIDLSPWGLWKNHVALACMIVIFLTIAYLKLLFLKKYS
UniProt P08183, whole entry: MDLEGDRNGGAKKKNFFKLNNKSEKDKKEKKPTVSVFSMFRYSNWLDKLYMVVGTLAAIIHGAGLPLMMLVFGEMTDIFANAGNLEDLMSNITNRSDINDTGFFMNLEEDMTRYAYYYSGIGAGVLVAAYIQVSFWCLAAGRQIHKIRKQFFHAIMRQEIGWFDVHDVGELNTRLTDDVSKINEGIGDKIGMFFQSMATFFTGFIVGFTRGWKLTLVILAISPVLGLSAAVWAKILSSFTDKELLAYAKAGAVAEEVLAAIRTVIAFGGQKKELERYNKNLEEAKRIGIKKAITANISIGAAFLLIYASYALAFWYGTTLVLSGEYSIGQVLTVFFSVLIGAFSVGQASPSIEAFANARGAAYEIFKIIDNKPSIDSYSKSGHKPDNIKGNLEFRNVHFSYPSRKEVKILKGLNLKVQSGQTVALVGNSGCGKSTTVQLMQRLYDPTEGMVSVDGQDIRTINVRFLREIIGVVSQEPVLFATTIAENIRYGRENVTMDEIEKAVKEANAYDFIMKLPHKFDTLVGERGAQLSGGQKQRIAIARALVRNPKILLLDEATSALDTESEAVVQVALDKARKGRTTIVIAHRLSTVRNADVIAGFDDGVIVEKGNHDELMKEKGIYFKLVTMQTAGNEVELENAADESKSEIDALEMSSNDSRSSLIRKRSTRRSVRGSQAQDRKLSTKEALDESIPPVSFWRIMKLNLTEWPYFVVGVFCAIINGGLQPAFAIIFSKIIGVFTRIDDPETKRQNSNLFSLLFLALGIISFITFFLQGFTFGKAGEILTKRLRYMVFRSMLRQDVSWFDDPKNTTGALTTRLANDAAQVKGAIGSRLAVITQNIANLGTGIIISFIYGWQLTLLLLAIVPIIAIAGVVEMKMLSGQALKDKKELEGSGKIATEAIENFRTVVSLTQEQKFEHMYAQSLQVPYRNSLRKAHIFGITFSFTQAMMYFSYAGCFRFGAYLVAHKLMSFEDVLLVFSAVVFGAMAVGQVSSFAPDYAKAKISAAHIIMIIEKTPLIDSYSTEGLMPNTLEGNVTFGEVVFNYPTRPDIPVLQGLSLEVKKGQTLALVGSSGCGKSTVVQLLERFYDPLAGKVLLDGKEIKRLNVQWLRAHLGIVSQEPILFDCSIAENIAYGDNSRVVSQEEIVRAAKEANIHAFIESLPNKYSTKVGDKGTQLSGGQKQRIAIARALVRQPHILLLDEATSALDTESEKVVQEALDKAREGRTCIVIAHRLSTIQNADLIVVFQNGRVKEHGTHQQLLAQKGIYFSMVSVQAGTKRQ

Assays:
MRP2 [1] = target: T1, MRP2 (Homo sapiens, UniProt Q92887); test: ATPase screening assay, MRP2 membrane; type: biochemical; details: TNP, TNP-G 30 mM, probenecid 100 mM, 37°C 40 min, blank 1.2 ± 0.5
[2] = Pharmacokinetics in mice treated with siRNA; details: for AUC(0-t) / Cmax / MRT / t1/2: plasma, TNP 12 mg/kg intragastric
BCRP = BCRP (Homo sapiens, UniProt Q9UNQ0); test: ATPase screening assay, BCRP membrane; details: TNP, TNP-G, sulfasalazine 1 mM, 37°C 30 min, blank 6.4 ± 1.7
P-gp [3] = target: P-gp (Homo sapiens, UniProt P08183); test: Uptake in HepG2 cells transfected with mdr1a siRNA; details: 20 μM substrate
Caco-2 monolayer = details: cyclosporine A and MK571 increased the apparent permeability of TNP; ref Li et al., 2010; cited from earlier work
MRP2 [4] = target: T1, MRP2; test: Uptake in HepG2 cells transfected with MRP2 siRNA; details: 20 μM substrate
[5] = rats, within 24 h; ref Kong et al., 2007; cited from earlier work
[6] = test system: sandwich-cultured rat hepatocytes (SCRH)
MDR1 = MDR1 (Homo sapiens, UniProt P08183); test: ATPase screening assay, MDR1 membrane; details: conclusion from ATPase assay
[7] = Pharmacokinetic study in intact rats pretreated with tariquidar or probenecid; type: in vivo, rat; details: for AUC(0-t) / Cmax / MRT / T1/2: plasma, TNP 12 mg/kg intragastric
[8] = ref Kong et al., 2007; Deng et al., 2012; cited from earlier work
[9] = Biliary excretion in bile-duct cannulated (BDC) rats; type: in vivo, rat; details: TNP 12 mg/kg intragastric
P-gp [10] = test: Bile clearance of TNP in SCRH with P-gp inhibitors or inducer
[11] = ref previous study; cited from earlier work
[12] = TNP + probenecid 200 mg/kg i.v.

In the case of `COC12CCC3(CC1C(C)(O)CCc1cccs1)C1Cc4ccc(O)c5c4C3(CCN1CC1CC1)C2O5` (stereo not drawn), the “Vanadate-sensitive ATPase activities, MRP2” value (MRP2 [1]) is reported as 0.8 ± 0.2 nmol/min/mg, the “increase in AUC compared to the control group” value ([2]; mdr1a siRNA) is reported as 3.4 fold and the “increase in Cmax compared to the control group” value ([2]; mdr1a siRNA) is reported as 5.6 fold. The “AUC(0-t)” value ([2]; TNP + NC-siRNA) was 209.64 ± 40.5 ng·h/mL, the Cmax ([2]; TNP + NC-siRNA) was 38.0 ± 12.6 ng/mL and the MRT ([2]; TNP + NC-siRNA) was 4.57 ± 0.46 h. For the same compound, the t1/2 ([2]; TNP + NC-siRNA) was 5.1 ± 1.1 h, the “AUC(0-t)” value ([2]; TNP + mdr1a siRNA) was 708.6 ± 103.8 ng·h/mL and the Cmax ([2]; TNP + mdr1a siRNA) was 211.9 ± 61.3 ng/mL. The MRT ([2]; TNP + mdr1a siRNA) was 3.29 ± 0.28 h, the t1/2 ([2]; TNP + mdr1a siRNA) was 5.1 ± 2.1 h and the “Vanadate-sensitive ATPase activities, BCRP” value (BCRP) was 5.9 ± 0.8 nmol/min/mg. The “intracellular concentration, increase compared with the NC-siRNA group” value (P-gp [3]) was 1.9 fold, the “Transporter substrate finding, Caco-2 monolayer transport” value (Caco-2 monolayer) was “substrate of P-gp and MRP2” and the “intracellular concentration, increase compared with the NC-siRNA group” value (MRP2 [4]) was “not impacted”. For the same compound, the “oral dose excreted from bile” value [5] was 24%, the “CLbile,pred (plasma total concentration) relative to measured CLbile,obs” value ([6]; SCRH prediction vs rats) was ~ 2 fold and the “average BEI (biliary excretion index)” value ([6]; SCRH, 20 μM, 60 min incubation) was 14.5 ± 0.9. For the same compound, the “CLbile, int From Eq. 2” value ([6]; SCRH, in vitro intrinsic biliary clearance scaled to body weight) was 5.8 ± 0.5 mL/min/kg, the “CLbile,pred From Eq. 3” value ([6]; predicted in vivo from SCRH CLbile,int, total concentration (fu,p = 1), Qp 40 ml/min/kg) was 5.0 ± 0.4 mL/min/kg and the “CLbile,pred From Eq. 4” value ([6]; predicted in vivo from SCRH CLbile,int, with plasma unbound fraction) was 0.3 ± 0.02 mL/min/kg. For the same compound, the “Transporter substrate finding, MDR1” value (MDR1) was “substrate of MDR1”, the “AUC(0-t)” value [7, 12] was 39.5 ± 16.8 ng·h/mL and the Cmax [7, 12] was 24.2 ± 3.8 ng/mL. For the same compound, the MRT [7, 12] was 7.4 ± 3.9 h, the T1/2 [7, 12] was 5.6 ± 2.6 h and the “AUC(0-t)” value ([7]; TNP + saline) was 38.9 ± 23.8 ng·h/mL. The Cmax ([7]; TNP + saline) was 16.2 ± 7.8 ng/mL, the MRT ([7]; TNP + saline) was 12.2 ± 2.2 h and the T1/2 ([7]; TNP + saline) was 7.8 ± 1.4 h. The “AUC(0-t)” value ([7]; TNP + tariquidar 10 mg/kg i.v.) was 119.0 ± 68.6 ng·h/mL, the Cmax ([7]; TNP + tariquidar 10 mg/kg i.v.) was 47.3 ± 8.1 ng/mL and the MRT ([7]; TNP + tariquidar 10 mg/kg i.v.) was 6.4 ± 3.3 h. For the same compound, the T1/2 ([7]; TNP + tariquidar 10 mg/kg i.v.) was 3.4 ± 1.7 h, the “increase in the AUC compared with the control group” value ([7]; tariquidar treated group) was 3.1 fold and the “increase in the Cmax compared with the control group” value ([7]; tariquidar treated group) was 2.9 fold. The duration of excretion [8] was ~ 2 weeks, the “recovery in bile, % of the TNP dose” value ([9]; BDC rats, control group, 24 h) was “less than 1%” and the “CLbile,obs From Eq.5” value ([9]; rats, bile amount 0–24 h / AUC0–24h) was 2.4 ± 0.1 mL/min/kg. The “CLbile,int of TNP” value (P-gp [10]; quercetin 0 μM (control)) was 11.7 ± 1.0 mL/min/kg, the “CLbile,int of TNP” value (P-gp [10]; tariquidar 0 μM (control)) was 16.5 ± 1.0 mL/min/kg and the fu,p (plasma unbound fraction) [11] was 0.05.
